Experimental data from patent US8912180B2, “Heterocyclic compound” (Astellas Pharma Inc., priority 2010, dated 2014).

By UniProt entry, the sequences of proteins in these tests, tags left out. Where a name states a change or a piece, a line headed by the entry shows the natural chain unless it says otherwise.
UniProt P42336, whole entry: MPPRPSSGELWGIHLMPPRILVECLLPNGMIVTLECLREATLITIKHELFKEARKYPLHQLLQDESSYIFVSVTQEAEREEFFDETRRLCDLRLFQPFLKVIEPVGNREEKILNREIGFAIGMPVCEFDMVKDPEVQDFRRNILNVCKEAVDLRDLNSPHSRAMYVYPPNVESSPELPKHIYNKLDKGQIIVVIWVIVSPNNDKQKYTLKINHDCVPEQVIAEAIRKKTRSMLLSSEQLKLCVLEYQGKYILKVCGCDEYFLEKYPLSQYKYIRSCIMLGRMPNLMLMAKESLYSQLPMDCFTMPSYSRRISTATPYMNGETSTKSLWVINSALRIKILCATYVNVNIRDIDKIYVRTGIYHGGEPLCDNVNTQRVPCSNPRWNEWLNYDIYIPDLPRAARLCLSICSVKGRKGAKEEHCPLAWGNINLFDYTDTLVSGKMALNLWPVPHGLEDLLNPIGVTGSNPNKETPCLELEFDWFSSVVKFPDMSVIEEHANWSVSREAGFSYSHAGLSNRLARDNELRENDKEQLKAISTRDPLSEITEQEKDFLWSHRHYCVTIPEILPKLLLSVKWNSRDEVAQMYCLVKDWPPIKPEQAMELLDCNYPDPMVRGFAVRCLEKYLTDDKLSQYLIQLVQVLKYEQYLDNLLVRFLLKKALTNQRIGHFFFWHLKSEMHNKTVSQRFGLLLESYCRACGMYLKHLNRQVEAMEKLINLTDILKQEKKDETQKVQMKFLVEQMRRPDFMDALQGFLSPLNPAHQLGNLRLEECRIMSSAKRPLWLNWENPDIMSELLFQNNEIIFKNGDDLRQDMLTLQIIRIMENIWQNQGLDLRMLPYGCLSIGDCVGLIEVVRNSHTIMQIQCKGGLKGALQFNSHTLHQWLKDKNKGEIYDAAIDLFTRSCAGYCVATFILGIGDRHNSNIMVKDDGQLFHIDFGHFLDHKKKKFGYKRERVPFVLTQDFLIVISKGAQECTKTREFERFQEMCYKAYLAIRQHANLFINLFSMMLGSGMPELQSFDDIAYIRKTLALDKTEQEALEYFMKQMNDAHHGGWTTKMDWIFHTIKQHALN
UniProt O00329, whole entry: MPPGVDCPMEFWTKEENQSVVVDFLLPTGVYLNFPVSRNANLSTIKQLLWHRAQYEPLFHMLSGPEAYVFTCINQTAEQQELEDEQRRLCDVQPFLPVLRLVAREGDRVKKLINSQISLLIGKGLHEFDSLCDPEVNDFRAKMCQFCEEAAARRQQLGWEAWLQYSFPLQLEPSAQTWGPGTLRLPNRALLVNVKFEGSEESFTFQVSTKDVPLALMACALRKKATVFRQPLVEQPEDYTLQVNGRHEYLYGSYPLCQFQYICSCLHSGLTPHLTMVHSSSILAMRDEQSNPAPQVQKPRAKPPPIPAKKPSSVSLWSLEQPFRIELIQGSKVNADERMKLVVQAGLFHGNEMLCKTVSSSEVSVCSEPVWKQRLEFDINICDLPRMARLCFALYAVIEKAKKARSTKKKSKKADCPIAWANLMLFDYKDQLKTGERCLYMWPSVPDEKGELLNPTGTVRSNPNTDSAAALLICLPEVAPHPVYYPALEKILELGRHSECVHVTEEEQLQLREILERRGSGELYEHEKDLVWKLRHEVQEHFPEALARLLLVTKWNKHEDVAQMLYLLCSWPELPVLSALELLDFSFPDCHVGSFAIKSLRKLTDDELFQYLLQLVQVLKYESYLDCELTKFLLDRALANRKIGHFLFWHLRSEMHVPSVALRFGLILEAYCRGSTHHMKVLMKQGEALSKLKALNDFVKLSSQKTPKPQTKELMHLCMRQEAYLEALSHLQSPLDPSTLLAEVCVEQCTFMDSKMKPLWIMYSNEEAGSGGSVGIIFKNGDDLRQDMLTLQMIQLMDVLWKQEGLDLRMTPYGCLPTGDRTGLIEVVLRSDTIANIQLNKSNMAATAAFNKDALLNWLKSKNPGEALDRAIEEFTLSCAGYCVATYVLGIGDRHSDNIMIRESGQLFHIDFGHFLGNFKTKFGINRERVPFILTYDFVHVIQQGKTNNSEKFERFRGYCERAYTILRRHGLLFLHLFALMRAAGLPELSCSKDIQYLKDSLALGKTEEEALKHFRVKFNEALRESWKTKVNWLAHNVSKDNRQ
UniProt P27986, whole entry partner: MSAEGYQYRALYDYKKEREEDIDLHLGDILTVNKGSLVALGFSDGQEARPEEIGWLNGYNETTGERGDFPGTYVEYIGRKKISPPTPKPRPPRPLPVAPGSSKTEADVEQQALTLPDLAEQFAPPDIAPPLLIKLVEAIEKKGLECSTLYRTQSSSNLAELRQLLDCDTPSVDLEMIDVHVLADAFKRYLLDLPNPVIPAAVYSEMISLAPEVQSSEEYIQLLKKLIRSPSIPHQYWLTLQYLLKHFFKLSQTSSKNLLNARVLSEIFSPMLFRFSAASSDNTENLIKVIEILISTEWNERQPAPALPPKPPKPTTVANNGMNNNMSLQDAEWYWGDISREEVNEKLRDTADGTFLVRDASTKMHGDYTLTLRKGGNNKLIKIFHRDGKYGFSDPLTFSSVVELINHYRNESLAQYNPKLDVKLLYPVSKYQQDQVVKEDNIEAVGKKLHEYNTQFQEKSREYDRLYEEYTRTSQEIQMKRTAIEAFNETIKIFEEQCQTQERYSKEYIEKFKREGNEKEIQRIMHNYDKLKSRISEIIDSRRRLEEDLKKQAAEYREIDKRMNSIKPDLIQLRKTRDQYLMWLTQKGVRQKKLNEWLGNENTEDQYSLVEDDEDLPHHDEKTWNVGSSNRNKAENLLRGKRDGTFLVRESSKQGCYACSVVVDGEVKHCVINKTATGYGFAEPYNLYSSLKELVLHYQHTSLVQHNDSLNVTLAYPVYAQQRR

Columns and labels:
[1] = system: Spleen cells prepared from male LEW/CrlCrlj rats (B cell proliferation); assay: Rat B cell proliferation inhibition test (anti-rat IgM, [3H]thymidine); details: read-out: IC50(nM) B cell proliferation, anti-rat IgM 3 μg/well, 48 hours culture
Method: 4. Rat B Cell Proliferation Inhibition Test
Spleen cells (1.0×10^5 cells/well) prepared from male LEW/CrlCrlj rats (Charles River Laboratories, Japan, Inc.), mouse F(ab′)2 fragment anti-rat IgM (3 μg/well, SouthernBiotech Associates, Inc., Catalogue No. 3082-14) and the test compound dissolved in DMSO (final DMSO concentration 0.1%) were mixed in a 96-well plate using a 10% FCS-containing RPMI-1640 culture medium (total 200 μL). They were cultured in a CO2 incubator for 48 hours and [^3H]thymidine (925 GBq/mmol, Moravek Biochemicals, Inc., Catalogue No. MT6038) was added thereto at 0.037 MBq/well at 4 hours before completion of culture. Cells were harvested in a GF/C glass filter using a cell harvester, and a radioactivity on the filter was measured using a liquid scintillation counter. The IC50 value of the compound was calculated, taking the dpm (disintegration per minute) without addition of IgM as an inhibition rate of 100% and the dpm without addition of the test compound as an inhibition rate of 0%, by a logistic method.

Human PI3Kα = Human PI3Kα (Homo sapiens, UniProt P42336); assay: PI3Kα enzyme inhibitory activity (Kinase-Glo Plus luminescence); details: read-out: PI3Kα IC50; human PI3Kα 12 ng/well, phosphatidylinositol 0.2 μg/well, 37° C. 3 hours
human PI3Kδ enzyme = human PI3Kδ enzyme (Homo sapiens, UniProt O00329); assay: PI3Kδ enzyme inhibitory activity (PI3-Kinase HTRF Assay kit); details: read-out: PI3Kδ IC50; human PI3Kδ 10 ng/well, ATP 30 μM, PIP2 10 μM, room temperature 30 minutes

**Q.** What does the source list for CN1CC(C(=O)N2CC(Nc3nc(N4CCOCC4)nc(-n4c(C(F)F)nc5ccccc54)n3)C2)CC1=O (stereo not drawn)?
**A.** IC50 [1]: 1.8 nM; IC50 (Human PI3Kα): 1600 nM; IC50 (human PI3Kδ enzyme): 11 nM
